Source: US10329278B2, “Pharmaceutical compounds” (Heptares Therapeutics Limited, priority 2017, dated 2019)

Chains of the proteins cited; added tags and fusions are not shown.
UniProt P11229, whole entry: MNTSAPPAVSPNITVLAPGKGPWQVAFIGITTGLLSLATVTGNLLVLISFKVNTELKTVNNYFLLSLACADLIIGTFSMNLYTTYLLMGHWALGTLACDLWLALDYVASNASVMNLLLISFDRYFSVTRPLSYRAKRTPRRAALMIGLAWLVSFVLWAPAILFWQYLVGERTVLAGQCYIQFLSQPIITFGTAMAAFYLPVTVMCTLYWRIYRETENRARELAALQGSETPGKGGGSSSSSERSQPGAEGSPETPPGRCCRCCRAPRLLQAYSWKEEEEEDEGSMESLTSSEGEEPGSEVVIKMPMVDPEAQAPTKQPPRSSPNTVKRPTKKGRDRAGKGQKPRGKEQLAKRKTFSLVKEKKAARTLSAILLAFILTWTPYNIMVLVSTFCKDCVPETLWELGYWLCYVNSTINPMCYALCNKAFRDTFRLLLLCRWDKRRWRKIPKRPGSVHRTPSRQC
UniProt P08173, whole entry: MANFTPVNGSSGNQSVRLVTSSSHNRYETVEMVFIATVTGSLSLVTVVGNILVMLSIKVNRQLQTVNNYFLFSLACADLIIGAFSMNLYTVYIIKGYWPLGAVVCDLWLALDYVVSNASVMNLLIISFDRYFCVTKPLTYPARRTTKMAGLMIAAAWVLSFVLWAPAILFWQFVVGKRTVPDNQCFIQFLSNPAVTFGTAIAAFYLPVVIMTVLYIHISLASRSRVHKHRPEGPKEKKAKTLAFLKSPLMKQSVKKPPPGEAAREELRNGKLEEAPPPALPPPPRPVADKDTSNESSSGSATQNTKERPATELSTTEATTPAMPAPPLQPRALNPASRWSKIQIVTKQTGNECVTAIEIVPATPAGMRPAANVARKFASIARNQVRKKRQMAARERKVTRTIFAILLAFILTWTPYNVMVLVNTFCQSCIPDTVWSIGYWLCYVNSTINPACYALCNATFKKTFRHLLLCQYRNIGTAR

Experiments:
[1] = molecular target: human muscarinic M1 receptor (Homo sapiens, UniProt P11229); assay: Alphascreen Surefire phospho-ERK1/2 functional assay, M1; settings: CHO cells stably expressing human M1; for pEC50 M1: agonist 5 min, 37° C.; for % Emax cf. ACh (M1): relative to ACh
[2] = molecular target: human muscarinic M4 receptor (Homo sapiens, UniProt P08173); assay: Alphascreen Surefire phospho-ERK1/2 functional assay, M4; type: cell-based; settings: CHO cells stably expressing human M4; for pEC50 M4: agonist 5 min, 37° C.; for % Emax cf. ACh (M4): relative to ACh

| Compound | pEC50 M1 [1] | % Emax cf. ACh (M1) [1] | pEC50 M4 [2] | % Emax cf. ACh (M4) [2] |
| --- | --- | --- | --- | --- |
| CCOC(=O)N1CCC2(CC(N3C[C@@H]4[C@H](C3)[C@H]4C(=O)N3CC4(CCC4)C3)C2)C1 (stereo partly shown) | 4.70 | 11% | 6.04 | 34% |
| CCOC(=O)[C@H]1[C@@H]2CN(C3CC4CCC3CN4C(=O)OCC)C[C@@H]21 (stereo partly shown) | 5.78 | 53% | 6.26 | 61% |
| CCN(C(=O)[C@H]1[C@@H]2CN(C3CC4(CCN(C(=O)OC)C4)C3)C[C@@H]21)C(C)C (single isomer, unassigned) | 5.93 | 66% | 4.70 | 56% |
| CCN(CC)C(=O)[C@H]1[C@@H]2CN(C3CC4(CCN(C(=O)OC)C4)C3)C[C@@H]21 (single isomer, unassigned) | 5.80 | 66% | 5.60 | 50% |
| CCN(CC)C(=O)[C@H]1[C@@H]2CN(C3CC4COCC(C3)N4C(=O)OC)C[C@@H]21 (single isomer, unassigned) | 6.67 | 96% | 6.24 | 73% |
| CCOC(=O)N1CC2CCC(C1)C2N1C[C@@H]2[C@H](C1)[C@H]2C(=O)N(CC)CC (single isomer, unassigned) | 6.46 | 76% | 4.70 | 2% |
| CCOC(=O)N1CC2CCC1CC2N1C[C@@H]2[C@H](C1)[C@H]2C(=O)N(C)OC (single isomer, unassigned) | 6.43 | 99% | 4.70 | 7% |
| CCOC(=O)N1CCC2(CC(N3C[C@@H]4[C@H](C3)[C@H]4C(=O)N(C)OC)C2)C1 (single isomer, unassigned) | 6.79 | 129% | 6.45 | 95% |
| CCOC(=O)N1CCC2(CC(N3C[C@@H]4[C@H](C3)[C@H]4C(=O)N(CC)C(C)C)C2)C1 (single isomer, unassigned) | 6.39 | 57% | 5.96 | 28% |
| CCOC(=O)N1CCC2(CC(N3C[C@@H]4[C@H](C3)[C@H]4C(=O)N(CC)CC)C2)C1 (single isomer, unassigned) | 5.90 | 42% | 4.70 | 39% |
| CCOC(=O)N1CCC2(CC(N3C[C@@H]4[C@H](C3)[C@H]4C(=O)N3CCC34COC4)C2)C1 (single isomer, unassigned) | 5.76 | 95% | 5.67 | 71% |
| CCOC(=O)N1C[C@@H]2CC[C@H]1CC2N1C[C@@H]2[C@H](C1)[C@H]2C(=O)N(C)CC (single isomer, unassigned) | 6.20 | 134% | 5.20 | 52% |
| CCOC(=O)N1C[C@@H]2CC[C@H]1CC2N1C[C@@H]2[C@H](C1)[C@H]2C(=O)N(CC)CC (single isomer, unassigned) | 6.13 | 89% | 4.70 | 4% |
| CCOC(=O)N1C[C@H]2CC[C@@H]1CC2N1C[C@@H]2[C@H](C1)[C@H]2C(=O)N(C)CC (single isomer, unassigned) | 5.83 | 104% | 5.49 | 29% |
| COC(=O)N1CCC2(CC(N3C[C@@H]4[C@H](C3)[C@H]4C(=O)N3CCC34CCC4)C2)C1 (single isomer, unassigned) | 6.34 | 67% | 5.92 | 43% |
| CCOC(=O)N1CCC2(CC(N3C[C@@H]4[C@H](C3)[C@H]4C(=O)NCC(C)C)C2)C1 (single isomer, unassigned) [2-2 Isomer 1] | 6.41 | 69% | 5.62 | 43% |

| Compound | pEC50 M1 [1] | % Emax cf. ACh (M1) [1] | pEC50 M4 [2] | % Emax cf. ACh (M4) [2] |
| --- | --- | --- | --- | --- |
| CCOC(=O)N1CCC2(CC(N3C[C@@H]4[C@H](C3)[C@H]4C(=O)NCC3CCC3)C2)C1 (single isomer, unassigned) [2-3 Isomer 2] | 6.83 | 90% | 5.97 | 66% |
| CCOC(=O)N1CCC2(CC(N3C[C@@H]4[C@H](C3)[C@H]4C(=O)NC3(C)CCC3)C2)C1 (single isomer, unassigned) [2-4 Isomer 1] | 5.64 | 49% | 5.97 | 37% |
| CCOC(=O)N1CCC2(CC(N3C[C@@H]4[C@H](C3)[C@H]4C(=O)N(C)C(C)C)C2)C1 (single isomer, unassigned) [2-8 Isomer 1] | 6.06 | 50% | 5.78 | 37% |
| CCOC(=O)N1CCC2(CC(N3C[C@@H]4[C@H](C3)[C@H]4C(=O)N3CCCC3)C2)C1 (single isomer, unassigned) [2-12 Isomer 1] | 4.88 | 65% | 6.14 | 85% |
| CCOC(=O)N1CCC2(CC(N3C[C@@H]4[C@H](C3)[C@H]4C(=O)N3CCCC3)C2)C1 (single isomer, unassigned) [2-12 Isomer 2] | 6.67 | 79% | 6.37 | 72% |
| CCOC(=O)N1CCC2(CC(N3C[C@@H]4[C@H](C3)[C@H]4C(=O)N3CCCCC3)C2)C1 (single isomer, unassigned) [2-13 Isomer 1] | 6.72 | 31% | 4.70 | 71% |
| CCOC(=O)N1CCC2(CC(N3C[C@@H]4[C@H](C3)[C@H]4C(=O)N3CCCC[C@H]3C)C2)C1 (single isomer, unassigned) [2-14 Isomer 1] | 6.49 | 80% | 5.91 | 33% |
| CCOC(=O)N1CCC2(CC(N3C[C@@H]4[C@H](C3)[C@H]4C(=O)N3CCCOCC3)C2)C1 (single isomer, unassigned) [2-17 Isomer 1] | 6.28 | 44% | 4.70 | 13% |
| CCOC(=O)N1CCC2(CC(N3C[C@@H]4[C@H](C3)[C@H]4C(=O)N(CC)OC)C2)C1 (single isomer, unassigned) [2-24 Isomer 1] | 6.03 | 76% | 5.79 | 53% |
| CCOC(=O)N1CCC2(CC(N3C[C@@H]4[C@H](C3)[C@H]4c3csc(C)n3)C2)C1 (single isomer, unassigned) [2-30 Isomer 1] | 4.70 | 29% | 6.45 | 61% |
| CCOC(=O)[C@H]1[C@@H]2CN(C3C4CC3CN(C(=O)OCC)C4)C[C@@H]21 (single isomer, unassigned) [5-1 Isomer 1] | 5.21 | 78% | 6.53 | 81% |
| CCOC(=O)[C@H]1[C@@H]2CN(C3C4CC3CN(C(=O)OCC)C4)C[C@@H]21 (single isomer, unassigned) [5-1 Isomer 2] | 4.70 | 102% | 6.09 | 54% |
| CCN(CC)C(=O)[C@H]1[C@@H]2CN(C3CC4CCC3CN4C(=O)OC)C[C@@H]21 (single isomer, unassigned) [8-6 Isomer 1] | 6.07 | 31% | 4.70 | 2% |
| CCN(CC)C(=O)[C@H]1[C@@H]2CN(C3CC4CCC3CN4C(=O)OC)C[C@@H]21 (single isomer, unassigned) [8-6 Isomer 2] | 6.45 | 39% | 4.70 | 2% |
| CCOC(=O)N1CC2CCC1CC2N1C[C@@H]2[C@H](C1)[C@H]2C(=O)N(CC)OC (single isomer, unassigned) [8-10 Isomer 2] | 6.03 | 123% | 4.70 | 16% |
